The test system of this data set is K562 target cells. In words: NK-cell cytotoxicity (NKTEST, flow cytometry). The following applies: 10 ug/ml peptide, effector:target 40:1, four donors. In kind it is cell-based, human. The method, then: The NK-cell cytotoxic activity of blood mononuclear cells from four healthy donors was tested. Mononuclear cells were separated by standard Ficoll-Paque® Plus (Pharmacia AB, Sweden) density gradient centrifugation from heparinized blood obtained from healthy donors. NK cell cytotoxic activity of the mononuclear cells was then tested using a commercial kit (NKTEST, Orpegen Pharma GmblI, Heidelberg, Germany) following the manufacturers protocol. Briefly, the kit contains cryopreserved, NK-sensitive target cells (K562) labeled with a lipophilic green fluorescent membrane dye, which enables discrimination of effector and target cells. After incubation with effector cells, killed target cells are identified by a DNA-stain, which penetrates and specifically stain the nuclei of dead target cells. This way the percentage of killed targets can be determined by flow cytometry. The mononuclear cells were preincubated for 30 min at 37° C. with the indicated peptides (peptides have been described previously) at 10 ug/ml. Target cells were then added, giving an effector:target ratio of 40:1, and the cell mixture incubated at 37° C. for 3-4 hours. Samples were analysed on a FACSCalibur (BD® Biosciences, San Jose, Calif.).
(In general: In flow cytometry, cells or beads pass a laser one at a time.)

1 compound from US10881709B2, “Immune system modulators and compositions” (Canimguide Therapeutics AB, priority 2015, dated 2021) can be followed below.

Turning to `CC[C@H](C)[C@H](NC(=O)[C@H](CC(C)C)NC(=O)[C@H](CC(N)=O)NC(=O)[C@H](CCC(N)=O)NC(=O)[C@@H]1CCCN1C(=O)[C@H](CCC(=O)O)NC(=O)[C@H](CCC(=O)O)NC(=O)[C@@H](NC(=O)[C@H](CC(C)C)NC(=O)[C@@H]1CCCN1C(=O)[C@H](CCCCN)NC(=O)[C@H](Cc1ccccc1)NC(=O)[C@H](CCC(=O)O)NC(=O)[C@H](CC(=O)O)NC(=O)[C@H](Cc1ccccc1)NC(=O)[C@@H](N)C(C)C)C(C)C)C(=O)N[C@@H](CCCCN)C(=O)O` [P3028], the “effect on NK-cell cytotoxicity (percent specific lysis of K562)” value is on record as “reduced the percent specific lysis”.
